Measured values reported in patent publication US8460868B2, “Genetic markers for schizophrenia and bipolar disorder” (priority 2007, dated 2013).

Legend:
[1] = system: patients with schizophrenia; assay: CATIE trial side effects (discontinued for safety concerns, COMPEFF score 5) by HPCAL1/SV2C genotype; format: in vivo, human; conditions: for OR vs. Low / OR vs. baseline: side effects; for OR vs. Low: vs low scoring genotype(s); for OR vs. baseline: vs sample not segmented by genotype
Description: The Clinical Antipsychotic Trials of Intervention Effectiveness (CATIE), a large federally funded clinical trial designed to assess the efficacy of antipsychotics in a real world setting, is a valuable resource for determining the role of genes in drug response (Stroup et al., Schizophr. Bull. 29:15-31 (2003); Lieberman et al., N. Engl. J. […] As part of the CATIE trial SNP genotyping was performed for roughly half of the trial participants (Sullivan et al., Mol. Psychiatry 13:570-584 (2008)). […] The design of the CATIE study has been described in detail by others (Stroup et al., Schizophr. Bull. 29:15-31 (2003); Lieberman et al., N. Engl. J. […] A total of 738 subjects consented to provide DNA for genetic study. […] Genotype and phenotype data for the CATIE trial were made available to qualified researchers through The NIMH Center for Collaborative Genetic Studies on Mental Disorders. For reduction to practice, we evaluated data for 417 patients with schizophrenia self reported as having exclusively European ancestry. […] Golden Helix, Bozeman, Mont.). To generate a P value, HelixTree calculates analysis of deviance (a likelihood ratio statistic) that compares the observed contingency table vs. an expected contingency table created with all the possible variations of the genetic model. […] The standard FDA registration trial definition of response of >20% decrease in Positive and Negative Syndrome Scale (PANSS Total Score) was used to assign subjects to a response category. […] Bull. 29:73-80 (2003)). […] The tables report odds ratios relative to the baseline values (sample not segmented by genotype) and relative to values for the low scoring, mutually exclusive genotype(s).

[2] = system: patients with schizophrenia; assay: CATIE trial drug response (>20% decrease in PANSS Total Score) by HPCAL1/SV2C genotype; format: in vivo, human; conditions: HPCAL1 rs11679891 genotype C/C (C), vs low scoring genotype(s)
Description: The Clinical Antipsychotic Trials of Intervention Effectiveness (CATIE), a large federally funded clinical trial designed to assess the efficacy of antipsychotics in a real world setting, is a valuable resource for determining the role of genes in drug response (Stroup et al., Schizophr. Bull. 29:15-31 (2003); Lieberman et al., N. Engl. J. […] As part of the CATIE trial SNP genotyping was performed for roughly half of the trial participants (Sullivan et al., Mol. Psychiatry 13:570-584 (2008)). When combined with clinical drug response data, the genotyping data make possible a reduction to practice for the current invention as it relates to pharmacogenomic applications. The design of the CATIE study has been described in detail by others (Stroup et al., Schizophr. Bull. 29:15-31 (2003); Lieberman et al., N. Engl. J. […] A total of 738 subjects consented to provide DNA for genetic study. Details regarding SNP genotyping and quality control have been recently published (Sullivan et al., Mol. Psychiatry 13:570-584 (2008)). Genotype and phenotype data for the CATIE trial were made available to qualified researchers through The NIMH Center for Collaborative Genetic Studies on Mental Disorders. For reduction to practice, we evaluated data for 417 patients with schizophrenia self reported as having exclusively European ancestry. […]

[3] = SV2C rs1895391 genotype C/T, T/T (T)
[4] = SV2C rs10064352 genotype T/T (T)
[5] = SV2C rs10474464 genotype C/C (C)
[6] = SV2C rs12655684 genotype T/T (T)
[7] = SV2C rs12657276 genotype G/G (G)
[8] = SV2C rs17651115 genotype G/G (G)
[9] = SV2C rs1895391 genotype C/C (C)
[10] = SV2C rs6874435 genotype A/G, G/G (G)
[11] = SV2C rs10064352 genotype C/C (C)
[12] = SV2C rs10474464 genotype T/T (T)
[13] = SV2C rs12152728 genotype G/G (G)

SMILES: Cc1cc2c(s1)Nc1ccccc1N=C2N1CCN(C)CC1 [olanzapine]
- OR vs. Low [1, 3]: 4.33
- OR vs. baseline [1, 3]: 1.29
- OR vs. Low ([1]; SV2C rs4610441 genotype C/C (C)): 4.26
- Frequency Study ending side effects [1, 4]: 0.46
- OR vs. Low [1, 4]: 3.20
- OR vs. baseline [1, 4]: 2.56
- Frequency Study ending side effects [1, 5]: 0.54
- OR vs. Low [1, 5]: 4.70
- OR vs. baseline [1, 5]: 3.52
- OR vs. Low ([1]; SV2C rs12152728 genotype C/C (C)): 3.76
- Frequency Study ending side effects [1, 6]: 0.75
- OR vs. Low [1, 6]: 10.04
- Frequency Study ending side effects [1, 7]: 0.48
- OR vs. Low [1, 7]: 5.67
- OR vs. baseline [1, 7]: 2.77
- Frequency Study ending side effects [1, 8]: 0.43
- OR vs. Low [1, 8]: 4.63
- OR vs. baseline [1, 8]: 2.26

SMILES: OCCOCCN1CCN(C2=Nc3ccccc3Sc3ccccc32)CC1 [quetiapine]
- OR vs. Low [2]: 3.86

SMILES: Cc1nc2n(c(=O)c1CCN1CCC(c3noc4cc(F)ccc34)CC1)CCCC2 [risperidone]
- Frequency Study ending side effects [1, 9]: 0.23
- OR vs. Low [1, 9]: 3.97
- OR vs. baseline [1, 9]: 2.19
- Frequency Study ending side effects [1, 10]: 0.24
- OR vs. Low [1, 10]: 4.20
- OR vs. baseline [1, 10]: 2.32
- Frequency Study ending side effects [1, 11]: 0.21
- OR vs. Low [1, 11]: 3.53
- OR vs. baseline [1, 11]: 1.95
- Frequency Study ending side effects [1, 12]: 0.21
- OR vs. Low [1, 12]: 3.53
- OR vs. baseline [1, 12]: 1.95
- Frequency Study ending side effects [1, 13]: 0.21
- OR vs. Low [1, 13]: 3.53
- OR vs. baseline [1, 13]: 1.95
